Among the data in US9440957B2, “Compounds and compositions for modulating EGFR Activity” (Novartis AG, priority 2012, dated 2016) are IC50 values, retold here.

Protein sequences, listed by entry. Tags and fused reporters are not part of them. Residues count along the entry.
UniProt P00533, 25-1210 T790M/L858R: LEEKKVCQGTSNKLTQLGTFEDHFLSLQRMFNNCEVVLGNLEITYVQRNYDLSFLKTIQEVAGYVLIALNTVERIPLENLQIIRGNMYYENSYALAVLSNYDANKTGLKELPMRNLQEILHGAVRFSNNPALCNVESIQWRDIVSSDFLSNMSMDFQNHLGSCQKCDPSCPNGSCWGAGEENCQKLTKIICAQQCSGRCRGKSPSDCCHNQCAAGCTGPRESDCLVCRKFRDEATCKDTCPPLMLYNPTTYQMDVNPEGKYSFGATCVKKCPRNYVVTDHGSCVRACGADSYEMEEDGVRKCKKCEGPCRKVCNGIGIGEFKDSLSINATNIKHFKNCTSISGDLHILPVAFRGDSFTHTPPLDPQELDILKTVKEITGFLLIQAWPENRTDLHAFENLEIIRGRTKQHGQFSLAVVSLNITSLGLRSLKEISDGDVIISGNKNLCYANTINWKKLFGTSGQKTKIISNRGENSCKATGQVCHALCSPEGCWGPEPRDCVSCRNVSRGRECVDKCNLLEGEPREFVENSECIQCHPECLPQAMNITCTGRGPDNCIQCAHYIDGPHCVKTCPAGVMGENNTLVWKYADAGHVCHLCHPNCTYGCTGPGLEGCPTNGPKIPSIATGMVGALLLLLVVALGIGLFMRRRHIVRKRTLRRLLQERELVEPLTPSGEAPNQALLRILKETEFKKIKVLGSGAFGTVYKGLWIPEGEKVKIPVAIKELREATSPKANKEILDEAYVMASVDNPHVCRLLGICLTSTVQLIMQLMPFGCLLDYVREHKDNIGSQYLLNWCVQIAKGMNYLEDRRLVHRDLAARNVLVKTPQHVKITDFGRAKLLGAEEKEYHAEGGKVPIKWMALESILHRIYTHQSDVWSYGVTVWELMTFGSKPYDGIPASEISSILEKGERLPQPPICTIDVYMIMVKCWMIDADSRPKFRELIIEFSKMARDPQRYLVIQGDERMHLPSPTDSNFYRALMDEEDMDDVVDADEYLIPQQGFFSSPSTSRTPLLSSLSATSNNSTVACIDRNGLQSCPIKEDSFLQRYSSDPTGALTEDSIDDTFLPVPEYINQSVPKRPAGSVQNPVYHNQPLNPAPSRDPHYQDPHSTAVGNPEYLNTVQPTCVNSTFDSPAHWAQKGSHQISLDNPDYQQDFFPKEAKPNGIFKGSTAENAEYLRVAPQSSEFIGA
UniProt P00533, 25-1210: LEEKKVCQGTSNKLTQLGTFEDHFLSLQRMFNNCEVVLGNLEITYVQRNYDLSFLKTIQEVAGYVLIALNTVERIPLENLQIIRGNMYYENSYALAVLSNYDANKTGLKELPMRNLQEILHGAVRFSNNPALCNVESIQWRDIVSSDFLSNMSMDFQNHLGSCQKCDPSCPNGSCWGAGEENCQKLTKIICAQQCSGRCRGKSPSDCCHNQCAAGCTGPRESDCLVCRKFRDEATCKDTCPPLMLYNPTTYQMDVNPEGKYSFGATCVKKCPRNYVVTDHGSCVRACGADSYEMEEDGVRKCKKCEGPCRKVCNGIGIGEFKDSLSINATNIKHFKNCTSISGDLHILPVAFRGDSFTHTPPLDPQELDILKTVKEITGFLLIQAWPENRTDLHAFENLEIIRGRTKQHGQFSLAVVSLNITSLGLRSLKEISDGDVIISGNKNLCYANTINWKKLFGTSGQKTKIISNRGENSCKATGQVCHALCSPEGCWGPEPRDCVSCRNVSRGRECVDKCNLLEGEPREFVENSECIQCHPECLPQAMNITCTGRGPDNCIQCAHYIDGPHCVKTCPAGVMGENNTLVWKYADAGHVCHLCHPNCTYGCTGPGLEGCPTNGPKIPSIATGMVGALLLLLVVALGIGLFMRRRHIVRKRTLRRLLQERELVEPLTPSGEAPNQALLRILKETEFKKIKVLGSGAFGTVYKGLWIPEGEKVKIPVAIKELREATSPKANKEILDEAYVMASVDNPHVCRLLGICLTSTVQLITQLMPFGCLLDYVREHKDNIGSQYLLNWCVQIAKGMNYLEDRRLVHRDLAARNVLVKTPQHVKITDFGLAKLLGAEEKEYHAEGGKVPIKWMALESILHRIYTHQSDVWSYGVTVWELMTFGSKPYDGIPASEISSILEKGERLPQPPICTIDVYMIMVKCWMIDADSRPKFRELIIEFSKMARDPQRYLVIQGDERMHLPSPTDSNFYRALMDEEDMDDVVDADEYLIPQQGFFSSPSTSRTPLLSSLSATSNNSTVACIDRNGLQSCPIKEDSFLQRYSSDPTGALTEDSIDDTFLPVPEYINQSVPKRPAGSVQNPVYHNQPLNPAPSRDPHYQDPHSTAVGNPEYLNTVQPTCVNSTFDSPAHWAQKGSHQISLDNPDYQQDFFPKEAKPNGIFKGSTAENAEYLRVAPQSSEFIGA
UniProt P00533, 25-1210 L858R: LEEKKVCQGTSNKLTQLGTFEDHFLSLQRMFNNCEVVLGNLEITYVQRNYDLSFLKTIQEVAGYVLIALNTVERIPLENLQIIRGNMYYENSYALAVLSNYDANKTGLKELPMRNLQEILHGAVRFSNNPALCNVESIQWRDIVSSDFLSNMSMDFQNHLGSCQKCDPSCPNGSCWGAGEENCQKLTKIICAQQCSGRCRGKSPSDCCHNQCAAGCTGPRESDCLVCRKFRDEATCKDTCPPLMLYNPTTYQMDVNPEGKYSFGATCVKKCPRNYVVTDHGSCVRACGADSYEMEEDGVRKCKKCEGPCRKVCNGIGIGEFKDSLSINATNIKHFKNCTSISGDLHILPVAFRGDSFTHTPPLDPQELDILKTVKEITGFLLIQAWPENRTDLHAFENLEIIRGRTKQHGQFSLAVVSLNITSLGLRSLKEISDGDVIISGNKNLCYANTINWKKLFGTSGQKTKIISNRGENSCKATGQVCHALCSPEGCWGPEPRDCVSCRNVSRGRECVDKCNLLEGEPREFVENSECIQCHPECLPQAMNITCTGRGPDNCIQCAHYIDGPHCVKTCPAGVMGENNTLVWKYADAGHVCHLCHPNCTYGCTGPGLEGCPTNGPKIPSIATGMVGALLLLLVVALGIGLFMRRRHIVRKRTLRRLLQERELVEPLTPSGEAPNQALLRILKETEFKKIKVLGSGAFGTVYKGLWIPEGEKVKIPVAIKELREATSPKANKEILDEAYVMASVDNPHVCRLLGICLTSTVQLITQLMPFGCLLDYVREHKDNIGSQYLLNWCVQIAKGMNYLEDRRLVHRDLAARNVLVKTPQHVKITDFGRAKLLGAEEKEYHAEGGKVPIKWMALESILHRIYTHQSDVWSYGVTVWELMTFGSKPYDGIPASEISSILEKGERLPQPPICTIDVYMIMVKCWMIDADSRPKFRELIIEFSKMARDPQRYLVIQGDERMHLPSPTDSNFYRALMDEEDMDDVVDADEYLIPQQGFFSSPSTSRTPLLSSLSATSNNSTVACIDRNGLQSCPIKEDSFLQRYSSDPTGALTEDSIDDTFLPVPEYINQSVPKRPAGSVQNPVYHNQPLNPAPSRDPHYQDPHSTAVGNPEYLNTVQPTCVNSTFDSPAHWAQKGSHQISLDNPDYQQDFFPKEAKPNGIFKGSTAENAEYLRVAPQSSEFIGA
UniProt P00533, 669-1210 T790M/L858R: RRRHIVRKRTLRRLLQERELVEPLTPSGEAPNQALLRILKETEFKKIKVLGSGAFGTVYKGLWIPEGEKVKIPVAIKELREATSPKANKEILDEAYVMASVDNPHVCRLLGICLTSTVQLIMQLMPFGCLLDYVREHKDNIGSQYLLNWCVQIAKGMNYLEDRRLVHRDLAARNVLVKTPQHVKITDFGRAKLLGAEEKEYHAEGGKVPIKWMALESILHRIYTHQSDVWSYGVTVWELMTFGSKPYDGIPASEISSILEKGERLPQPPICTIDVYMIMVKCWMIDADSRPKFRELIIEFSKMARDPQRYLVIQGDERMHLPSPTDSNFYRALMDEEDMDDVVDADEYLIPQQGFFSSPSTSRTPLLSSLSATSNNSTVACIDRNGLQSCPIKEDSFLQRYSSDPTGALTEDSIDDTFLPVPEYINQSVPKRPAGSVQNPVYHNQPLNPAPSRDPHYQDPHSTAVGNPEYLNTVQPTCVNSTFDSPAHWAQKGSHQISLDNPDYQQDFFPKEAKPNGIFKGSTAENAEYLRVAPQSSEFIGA

Experiment [1] deals with human EGFR L858R/T790M (NIH/3T3 cells) (Homo sapiens, UniProt P00533, L858R/T790M). Description: EGFR target modulation in engineered NIH/3T3 cell lines (phospho-EGFR Y1068 AlphaLISA), EGFR L858R/T790M. It counts as cell-based. The following applies: engineered NIH/3T3 cells, read-out: NIH3T3 IC50 (μM) EGFR (L858R/T790M). The method, then:
(§1) EGFR Target Modulation in Engineered NIH/3T3 Cell Lines Tissue Culture.
(§2) The cells were harvested with 0.05% Trypsin/EDTA (Hyclone #SH30236.01), re-suspended in 5% FBS/DMEM Pen/Strep without Puromycin and plated at 9,000 cells per well in 50 μl of media in a 384-well black plate with clear bottoms (Greiner #789068G). The cells were allowed to incubate overnight in a 37° C., 5% CO2 humidified tissue culture incubator. A 12-point test compound curve was prepared by serial diluting a 10 μM stock 1:3 in DMSO in a 384-well compound plate (Greiner #789201L). The serial diluted compounds were transferred to the plate containing cells by using a 50 nl Pin Head device (Perkin Elmer) and the cells were placed back in the incubator for 3 hours. Only the EGFR WT-expressing cells were induced with 50 ng/ml EGF (Preprotech #AF-100-15) for 5 minutes before lysis. […] The plates were shaken at 4° C. for 5 minutes with foil top at maximum speed. […] The plates were sealed with a foil top and frozen at −80° C. and thawed when needed.
(§3) The frozen aliquots were thawed and briefly centrifuged. All antibodies and beads were diluted in 1× AlphaLISA HiBlock Buffer (PE #AL004C). […]
(§4) With these parameters, the IC50's for each compound in each cell line was calculated using non-linear curve fitting analysis.
In general terms: Bead proximity is the source of the signal in Alpha formats.

The target of experiment [2] is H1975 (EGFR L858/T790M) (Homo sapiens, UniProt P00533, L858R/T790M). Description: EGFR target modulation in H1975 cell line (phospho-EGFR Y1173 ELISA). Format: cell-based. The method, then: (§5) EGFR Target Modulation in H1975, H3255 and HCC827 Cell Lines Tissue Culture. Cells were maintained in 10% FBS/RPMI supplemented with 100 μg/ml Penicillin/Streptomycin (Hyclone #SH30236.01). […] The cells were allowed to incubate overnight in a 37° C., 5% CO2 humidified tissue culture incubator. […] The serial diluted compounds were transferred to the plate containing cells by using a 50 nl Pin Head device (Perkin Elmer) and the cells were placed back in the incubator for 3 hours. Phospho-EGFR ([…]) Target Modulation Assay. The media was reduced to 20 ul using a Bio-Tek ELx 405 SelectTM plate washer. […] The plates were shaken at 4° C. for 20 minutes. An aliquot of 25 ul from each well was transferred to pEGFR(Y1173) ELISA plates for analysis. Phospho-EGFR ([…]) ELISA. Solid white high-binding ELISA plates (Greiner #781074) were coated with 5 ug/ml anti-EGFR capture antibody (R&D Systems #AF231) overnight in 50 mM carbonate/bicarbonate pH 9.5 buffer. Plates were blocked with 1% BSA (Sigma #A7030) in PBS for 1 hour at room temperature. Wash steps were carried out with a Bio-Tek ELx405 SelectTM using 4 cycles of 100 ul TBS-T (20 mM Tris, 137 mM NaCl, 0.05% Tween-20) per well. […] Lysis was allowed to occur for 20 minutes on ice. A 25 ul aliquot was added to each well of the blocked ELISA plate and incubated overnight at 4° C. with gentle shaking. […] After washing, 1:2,000 anti-rabbit-HRP (Cell Signaling #7074) in 0.2% BSA/TBS-T was added and incubated for 1 hour at room temperature. Chemiluminescent detection was carried out with SuperSignal ELISA Pico substrate (ThermoScientific #37069). Signal was read on EnVision plate reader using built-in UltraLUM setting. Data Analysis. Control cells treated with EGF were set to 100% maximum response. […] With these parameters, the IC50's for each compound in each cell line was calculated using non-linear curve fitting analysis.
For orientation: ELISA stands for enzyme-linked immunosorbent assay.

Experiment [3] concerns the target human EGFR WT (NIH/3T3 cells, EGF-induced) (Homo sapiens, UniProt P00533). Description: EGFR target modulation in engineered NIH/3T3 cell lines (phospho-EGFR Y1068 AlphaLISA), EGFR WT. Format: cell-based. The following applies: engineered NIH/3T3 cells, read-out: NIH3T3 IC50 (μM) EGFR (WT). The protocol: as §1, §2, §3, §4
Experiment [4] concerns the target human EGFR L858R (NIH/3T3 cells) (Homo sapiens, UniProt P00533, L858R). Description: EGFR target modulation in engineered NIH/3T3 cell lines (phospho-EGFR Y1068 AlphaLISA), EGFR L858R. Format: cell-based. The following applies: engineered NIH/3T3 cells, read-out: NIH3T3 IC50 (μM) EGFR (L858R). The method, then: as §1, §2, §3, §4
Experiment [5] deals with H3255 (EGFR L858R) (Homo sapiens, UniProt P00533, L858R). Kind of experiment: EGFR target modulation in H3255 cell line (phospho-EGFR Y1173 ELISA). Format: cell-based. The method, then:
as §5

For experiment [6], the target named is T1, EGFR(L858R/T790M) (Homo sapiens, UniProt P00533, L858R/T790M).
T1 construct: purchased from Carna (GST-a.a. 669-1210)
Description: EGFR biochemical assay (HTRF), IC50 determinations. The protocol:
All EGFR biochemical assays were carried out by HTRF method. The EGFR(L858R/T790M) enzyme were purchased from Carna (GST-a.a. 669-1210). The substrate peptide Biotin-TK-peptide was purchased from Cis-Bio. The reaction mixtures contained 1 μM peptide substrate, 10 μM ATP, and 0.036 nM EGFR(L858R/T790M) in the reaction buffer (50 mM HEPES pH 7.1, 10 mM MgCl2, 0.01% BSA, 1 mM TCEP and 0.1 mM Na3VO4) at a final volume of 10 μL. All reactions were carried out at room temperature in white ProxiPlate™ 384-well Plus plates (PerkinElmer) and were quenched with 5 μL of 0.2 M EDTA at 60 min. Five L of the detection reagents (2.5 ng PT66K and 0.05 μg SAXL per well) were added, the plates were incubated at room temperature for 1 h and then read in EnVision reader. […] For no-preincubation condition, the compounds were added to the assay solution containing ATP and peptide, and the reaction was initiated by addition of enzyme. For pre-incubation conditions, the compounds were added to the assay solution containing enzyme and peptide, and pre-incubated at room temperature for desired period of time, then the reaction was initiated by addition of ATP.

Experiment [7] deals with HEKn (EGFR WT) (Homo sapiens, UniProt P00533). Kind of experiment: EGFR target modulation in HEKn (EGFR-WT) cell line (phospho-EGFR Y1173 ELISA). The following applies: value outside parentheses. Format: cell-based. The protocol: EGFR Target Modulation in HEKn (EGFR-WT) Cell Line Tissue Culture. Human neonatal epithelial keratinocytes (Invitrogen #C-001-5C) were maintained in EpiLife media (Invitrogen #[…]) supplemented with growth factors (Invitrogen #S-001-5). Cells were harvested with 0.05% Trypsin/EDTA (Hyclone #SH30236.01) and quenched with 5% FBS/EpiLife media. […] The serial diluted compounds were transferred to the plate containing cells by using a 50 nl Pin Head device (Perkin Elmer) and the cells were placed back in the incubator for 3 hours. […] Phospho-EGFR (Y1173) ELISA. Solid white high-binding ELISA plates (Greiner #781074) were coated with 5 ug/ml anti-EGFR capture antibody (R&D Systems #AF231) overnight in 50 mM carbonate/bicarbonate pH 9.5 buffer. […] Wash steps were carried out with a Bio-Tek ELx405 SelectTM using 4 cycles of 100 ul TBS-T (20 mM Tris, 137 mM NaCl, 0.05% Tween-20) per well. […] Lysis was allowed to occur for 20 minutes on ice. A 25 ul aliquot was added to each well of the blocked ELISA plate and incubated overnight at 4° C. with gentle shaking. […] After washing, 1:2,000 anti-rabbit-HRP (Cell Signaling #7074) in 0.2% BSA/TBS-T was added and incubated for 1 hour at room temperature. […] Signal was read on EnVision plate reader using built-in UltraLUM setting. […] With these parameters, the IC50's for each compound in each cell line was calculated using non-linear curve fitting analysis.

The target in experiment [8] is HaCaT (EGFR WT) (Homo sapiens, UniProt P00533). Description: EGFR target modulation in HaCaT (EGFR-WT) cell line (phospho-EGFR Y1173 ELISA). Format: cell-based. The following applies: value in parentheses. The protocol:
EGFR Target Modulation in HaCaT (EGFR-WT) Cell Line Tissue Culture. […] The serial diluted compounds were transferred to the plate containing cells by using a 50 nl Pin Head device (Perkin Elmer) and the cells were placed back in the incubator for 3 hours. […] Phospho-EGFR ([…]) ELISA. Solid white high-binding ELISA plates (Greiner #781074) were coated with 5 ug/ml anti-EGFR capture antibody (R&D Systems #AF231) overnight in 50 mM carbonate/bicarbonate pH 9.5 buffer. […] Wash steps were carried out with a Bio-Tek ELx405 SelectTM using 4 cycles of 100 ul TBS-T (20 mM Tris, 137 mM NaCl, 0.05% Tween-20) per well. […] Lysis was allowed to occur for 20 minutes on ice. A 25 ul aliquot was added to each well of the blocked ELISA plate and incubated overnight at 4° C. with gentle shaking. […] After washing, 1:2,000 anti-rabbit-HRP (Cell Signaling #7074) in 0.2% BSA/TBS-T was added and incubated for 1 hour at room temperature. Chemiluminescent detection was carried out with SuperSignal ELISA Pico substrate (ThermoScientific #37069). Signal was read on EnVision plate reader using built-in UltraLUM setting. Data Analysis. Control cells treated with EGF were set to 100% maximum response. […] With these parameters, the IC50's for each compound in each cell line was calculated using non-linear curve fitting analysis.

[9] abbreviates: EGFR (L858R/T790M) with 90 min pre-incubation, read-out: IC50 (μM) Column B.
Where [10] appears, read: EGFR (L858R/T790M) with no pre-incubation, read-out: IC50 (μM) Column A.

Read-outs that look alike come from different tables or passages of the source.

Turning to `Cc1cc(C(=O)Nc2nc3cccc(Cl)c3n2[C@@H]2CCCCN(C(=O)/C=C/CN(C)C)C2)ccn1` [Example 5, (R,E)-N-(7-chloro-1-(1-(4-(dimethylamino)but-2-enoyl)azepan-3-yl)-1H-benzo[d]imidazol-2-yl)-2-methylisonicotinamide], the IC50 in experiment [1] is 0.011 µM; in experiment [2], 0.013 µM; in experiment [3] it was 0.259 µM; in experiment [4] it was 0.015 µM; in experiment [5], 0.03 µM; in experiment [6] (setting [9]) it was below 0.001 µM. Besides, the IC50 in experiment [6] (setting [10]) is 0.008 µM; in experiment [7] it was 1.18 µM.

Regarding `[2H]C([2H])([2H])N(C/C=C/C(=O)N1CCCC[C@@H](n2c(NC(=O)c3ccnc(C)c3)nc3cccc(Cl)c32)C1)C([2H])([2H])[2H]` [Example 17-189], the IC50 was 0.003 µM in experiment [2]; 0.083 µM in experiment [8]; 0.005 µM in experiment [5]; below 0.001 µM in experiment [6] (setting [9]); 0.005 µM in experiment [6] (setting [10]).

As to `Cc1cc(C(=O)Nc2nc3cccc(Cl)c3n2[C@H]2CCCCN(C(=O)/C=C/CN(C)C)C2)ccn1` [Example 17-196], the IC50 in experiment [2] is 0.277 µM; in experiment [8], above 10 µM; in experiment [5] it was 0.295 µM; in experiment [6] (setting [9]), 0.025 µM; in experiment [6] (setting [10]), 0.374 µM.
